Assay outcomes: PubChem BioAssay, National Center for Advancing Translational Sciences (NCATS)
p53 reactivation: re-activators of mutant p53; H1299 p53-A138V BP100-luciferase reporter, luminescence, 24 h; AID 504706; Potency, µM (series often up to 92.2 µM), for inactives: at the top dose activity change, positive = activation, usual class: activators; 320,000 tested, 0.063% active; further: potency means the concentration at half of the fitted maximal effect; % of control where 0% means no effect; nearly all actives have a fitted effect of over 45% in size
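p53-null H1299 cells stably carrying temperature-sensitive p53-A138V and a BP100-luciferase reporter were pinned with compounds (4-point, 1:5 series) and held 24 hrs at 37 deg C. Luminescence was read 10 min after detection reagent.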
A549 tox: A549 cytotoxicity, counter-screen for Nrf2 inhibitors. AID 504648. Potency, µM (doses to about 46 µM), for the others: at the highest dose activity change, negative = cytotoxicity, hits mostly inhibitors. A549 ARE-Fluc cells, CellTiter-Fluor viability, 18-24 h. 390,000 tested, 0.16% active; further: potency means the concentration at half of the fitted maximal effect; on the % scale 0 is the no-effect control and ±100 the full control effect
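A549 ARE-Fluc cells in 5% FBS OPTI-MEM, 5000 cells/well, rested 2 h then exposed to compounds in concentration-response for 18-24 h at 37 °C. Viability by CellTiter-Fluor fluorescence (Ex 405/Em 525) after 30 min; luciferase luminescence (BugLite, 15 min, RT) read afterwards.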
Nrf2 ARE act: activates Nrf2 signaling. AREc32 ARE-luciferase reporter (MCF7-derived line), luminescence, 24 h. Potency, µM (highest dose often 46.1 µM), for the others: at the top dose activation, actives largely listed as activators. 410,000 tested, 0.31% active. AID 624171; further: potency means the concentration at half of the fitted maximal effect; % of control where 0% means no effect; nearly all actives have a fitted effect of over 65% in size
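Steps: seed AREc32_Fluc cells (1000/well, 5% FBS OPTI-MEM); incubate overnight at 37 deg C; add 23 nL compound; incubate 24 hr; add Steady-Glo; hold 30 min RT; read luminescence.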
ClpP mod: qHTS Assay for Activators of ClpP. ATP-dependent Clp protease proteolytic subunit (Bacillus subtilis (strain 168)), P80244. purified B. subtilis ClpP, FRET peptide cleavage, 20 min. Potency, µM (top dose mostly 57.5 µM), inactives show top-dose activity change, negative = active. 340,000 tested, 1.9% active. AID 651965, 2013; active means well fitted falling curve with a large enough effect; inconclusive means small, poorly fitted or top-dose-only effect; inactive means no such curve, though single readings can be large or run the other way; further: potency means the concentration at half of the fitted maximal effect; the source files actives as falling curves though it sought activators and does not explain the sign; nearly all actives have a fitted effect of over 65% in size
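FRET quenching reversal measured ClpP activation: 10 microg/mL B. subtilis ClpP at pH 8 with the FRET-FV decapeptide, read at 430 nm after 320 nm excitation. The 20-min minus 0-min signal was scaled between DMSO/no-enzyme wells and ADEP (5.8 microM final).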
miR-21 reporter: miR-21 reporter, rising signal. HeLa miR-21 FLuc reporter, luciferase, 48 h. Potency, µM (highest dose often 38.3 µM), for the others: at the highest dose reporter change, positive = more light. 340,000 tested, under 10 active. AID 2288; active = well fitted rising curve with a large enough effect; inconclusive = small, poorly fitted or top-dose-only effect; inactive = no such curve, though single readings can be large or run the other way;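 further: % of control where 0% means no effect; miR-21 action dims this reporter so a rising signal means less miR-21 action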
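Using DMEM plus 10% FBS, HeLa miR-21-FLuc cells are incubated with test compounds (final up to about 40uM) for 48 hours; firefly luciferase signal is then imaged following reagent-mediated lysis.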
Nrf2 inh: Nrf2 pathway inhibition; A549 ARE-Fluc reporter, luciferase luminescence, 18-24 h; Potency, µM (titrated, usually from 46 µM), without a hit: at the highest dose activity change, negative = inhibition, actives largely listed as inhibitors; 360,000 tested, 2.1% active; further: potency means the concentration at half of the fitted maximal effect; on the % scale 0 is the no-effect control and ±100 the full control effect; nearly all actives have a fitted effect of over 60% in size
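Nrf2 activity is the BugLite luminescence, read 15 min after reagent at room temperature, following CellTiter-Fluor cytotoxicity readout (30 min, 37C). Compound titrations were applied for 18-24 h to 5000 A549 ARE_Fluc cells/well in 5% FBS OPTI-MEM.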
* marks the source's active call; other numbers are inactive results; u = inconclusive; x = not tested or not shown. A selection: hits, their analogues and other compounds. The true share with any hit is near 3.7%. Unless noted, the call rests on the fitted dose curve; in most records, active means well fitted curve in the direction sought with a large enough effect; inconclusive means small, poorly fitted or top-dose-only effect, or another doubt; inactive means no such curve, though single readings can be large; an effect the other way counts as inactive or inconclusive.

Key to letters – A = p53 reactivation; B = A549 tox; C = Nrf2 ARE act; D = ClpP mod; E = miR-21 reporter; F = Nrf2 inh
Molecule: CC(=O)OCC(=O)[C@@]1(OC(C)=O)[C@@H](C)C[C@H]2[C@@H]3C[C@H](F)C4=CC(=O)C=C[C@]4(C)[C@@]3(F)[C@@H](O)C[C@@]21C
  A = 2.2%; B = 4.9%; C = 2.0%; D = -3.6%; E = -24.8%; F = 0.0092µM*

Molecule: Nc1nc2ccccc2cc1C(=O)NCc1cccs1
  A = x; B = x; C = x; D = 3.6%; E = x; F = x

Molecule: Cc1nc(C)c(-c2ccc(SCC(=O)Nc3ccc(F)cc3F)nn2)s1
  A = -5.9%; B = -25.2%; C = -0.5%; D = u; E = 10.5%; F = 20.6µM*

Molecule: COc1ccc(OC)c(C2C(C(=O)c3cc4ccccc4o3)=C(O)C(=O)N2c2cc(C)on2)c1 (stereo not given)
  A = -16.0%; B = 11.6µM*; C = 3.0%; D = 6.4%; E = -13.5%; F = u

Molecule: CCCOc1ccc(C2C(C(=O)c3cc4ccccc4o3)=C(O)C(=O)N2c2cc(C)on2)cc1 (stereo not given)
  A = 0.8%; B = 20.6µM*; C = -0.2%; D = 1.2%; E = -9.2%; F = u

Molecule: COc1ccccc1C1C(C(=O)c2cc3ccccc3o2)=C(O)C(=O)N1c1cc(C)on1 (stereo not given)
  A = 19.8%; B = -4.7%; C = 18.5%; D = -2.3%; E = -7.5%; F = -12.4%

Molecule: CCOc1ccc(N2CC(NC(=O)c3ccc(Cl)cc3)CC2=O)cc1 (stereo not given)
  A = x; B = 4.1%; C = -1.2%; D = -0.3%; E = 7.3%; F = x

Molecule: CCCCCCCCCCCCCCCC[n+]1ccc(C)c2ccccc21
  A = x; B = x; C = x; D = -15.6%; E = x; F = x

Molecule: O=C(Cc1sc(Nc2ccccc2)nc1-c1ccccc1)NCc1ccccc1
  A = 39.8µM*; B = -26.2%; C = 7.0%; D = -4.7%; E = -3.2%; F = u

Molecule: Cc1ccc(S(=O)(=O)N2CCN(c3nc(C#N)nc4ccccc34)CC2)cc1
  A = x; B = 7.5%; C = x; D = x; E = x; F = -10.9%

Key to letters – A = p53 reactivation; B = A549 tox; C = Nrf2 ARE act; D = ClpP mod; E = miR-21 reporter; F = Nrf2 inh
Molecule: CCCCOc1ccc(/C=C2/Sc3ccccc3C2=O)cc1
  A = 12.6%; B = 19.1%; C = 7.7%; D = 0.3%; E = 1.4%; F = u

Molecule: CC(=O)Oc1cccc(/C=C2\Sc3ccccc3C2=O)c1
  A = 2.8%; B = 1.2%; C = 14.1µM*; D = x; E = 0.6%; F = 14.9%

Molecule: CCOC(=O)C1CCN(C(c2cccc(F)c2)c2c(O)cc(C)n(Cc3ccco3)c2=O)CC1 (stereo not given)
  A = x; B = 1.5%; C = 5.1%; D = 4.3%; E = -0.7%; F = x

Molecule: Cc1ccccc1-c1noc(-c2ccccc2F)n1
  A = u; B = -0.7%; C = 8.91µM*; D = -1.2%; E = -50.5%; F = x

Molecule: Cc1ccccc1-c1noc(-c2ccc(Cl)cc2)n1
  A = 18.5%; B = 1.1%; C = 12.3%; D = 0.6%; E = -23.0%; F = u

Molecule: COc1ccc(C(=O)NCCOc2ccccc2)cc1S(=O)(=O)N1CCOCC1
  A = -0.8%; B = 4.0%; C = -0.8%; D = 0.6%; E = x; F = -1.7%

Molecule: OCCCc1nc2n(n1)C(c1ccccc1Cl)C=C(c1cccs1)N2 (stereo not given)
  A = 8.3%; B = u; C = -0.2%; D = 22.4µM*; E = -12.3%; F = x

Molecule: COc1cc2c(cc1O)CC[C@@H]1[C@@H]2CC[C@]2(C)[C@@H](O)CC[C@@H]12
  A = x; B = -11.8%; C = -0.4%; D = 0.8%; E = 13.7%; F = 9.2µM*

Molecule: COc1cccc(CNC(=O)CCCn2nc(C)c3sc4ccccc4c3c2=O)c1
  A = x; B = -0.7%; C = -0.3%; D = -4.9%; E = -26.7%; F = 6.7%

Molecule: CC(NC(=O)COC(=O)C1=NN(c2ccccc2)C(=O)CC1)c1ccccc1 (stereo not given)
  A = 14.5%; B = 6.0%; C = 3.3%; D = -0.4%; E = x; F = 19.1%

An excerpt from above in order of their number in p53 reactivation, high to low:
molecule | p53 reactivation | ClpP mod | miR-21 reporter
CCCCOc1ccc(/C=C2/Sc3ccccc3C2=O)cc1 | 12.6% | 0.3% | 1.4%
CC(=O)Oc1cccc(/C=C2\Sc3ccccc3C2=O)c1 | 2.8% | x | 0.6%
COc1ccc(C(=O)NCCOc2ccccc2)cc1S(=O)(=O)N1CCOCC1 | -0.8% | 0.6% | x

(listing goes on)
Key to letters – A = p53 reactivation; B = A549 tox; C = Nrf2 ARE act; D = ClpP mod; E = miR-21 reporter; F = Nrf2 inh
Molecule: O=C(COC(=O)C1=NN(c2ccccc2)C(=O)CC1)NCc1ccccc1Cl
  A = -7.3%; B = -0.5%; C = -0.4%; D = 28.2µM*; E = x; F = 3.4%

Molecule: COc1cccc(Nc2sc(C(=O)c3ccc(F)cc3)c(N)c2C(=O)NCc2ccc(C)cc2)c1
  A = x; B = u; C = -0.5%; D = -3.0%; E = u; F = x

Molecule: COc1cc(-c2nc(Cn3nnc(C(=O)Nc4ccccc4)c3C)c(C)o2)cc(OC)c1OC
  A = x; B = -16.9%; C = 0.0%; D = 28.2µM*; E = 16.7%; F = u

Molecule: Cc1ccc(-c2ccc(S(=O)(=O)Nc3cccnc3)cc2)cc1
  A = -22.2%; B = 0.1%; C = 3.0%; D = -9.1%; E = 7.9%; F = 11.6µM*

Molecule: O=C1c2ccccc2C(=O)c2cc(S(=O)(=O)Nc3cccc4cccnc34)ccc21
  A = x; B = -18.5%; C = x; D = x; E = x; F = 5.17µM*
